Assay [1] concerns the target Luciferase (Mock, Promega control plasmid), in vitro translated, biotin-labelled [luciferase: P08659]. Put plainly: cell-based or functional assay.
In assay [2] the target is Spleen Tyrosine kinase (SYK, EST clone IMAGE 3870426), in vitro translated, biotin-labelled (UniProt P43405). Put plainly: cell-based or functional assay.

Consider “SRC (known kinase, 0.1 mU SRC/µl) (from UniProt P12931 1-536) (enzyme)”, for which the ECL signal with Sulfo-TAG anti-phosphotyrosine after SAP treatment and SRC reaction (+SRC, +SAP) in assay [1] was determined as 1150 ECL signal; in assay [2] it was 1650 ECL signal.

Source of the values: patent US20030207290A1.
